Data on 114 compounds can be found in PubChem BioAssay AID2553 (Johns Hopkins Ion Channel Center, 2010).

By UniProt entry, the sequences of proteins in these tests, tags left out.
UniProt Q61143, whole entry: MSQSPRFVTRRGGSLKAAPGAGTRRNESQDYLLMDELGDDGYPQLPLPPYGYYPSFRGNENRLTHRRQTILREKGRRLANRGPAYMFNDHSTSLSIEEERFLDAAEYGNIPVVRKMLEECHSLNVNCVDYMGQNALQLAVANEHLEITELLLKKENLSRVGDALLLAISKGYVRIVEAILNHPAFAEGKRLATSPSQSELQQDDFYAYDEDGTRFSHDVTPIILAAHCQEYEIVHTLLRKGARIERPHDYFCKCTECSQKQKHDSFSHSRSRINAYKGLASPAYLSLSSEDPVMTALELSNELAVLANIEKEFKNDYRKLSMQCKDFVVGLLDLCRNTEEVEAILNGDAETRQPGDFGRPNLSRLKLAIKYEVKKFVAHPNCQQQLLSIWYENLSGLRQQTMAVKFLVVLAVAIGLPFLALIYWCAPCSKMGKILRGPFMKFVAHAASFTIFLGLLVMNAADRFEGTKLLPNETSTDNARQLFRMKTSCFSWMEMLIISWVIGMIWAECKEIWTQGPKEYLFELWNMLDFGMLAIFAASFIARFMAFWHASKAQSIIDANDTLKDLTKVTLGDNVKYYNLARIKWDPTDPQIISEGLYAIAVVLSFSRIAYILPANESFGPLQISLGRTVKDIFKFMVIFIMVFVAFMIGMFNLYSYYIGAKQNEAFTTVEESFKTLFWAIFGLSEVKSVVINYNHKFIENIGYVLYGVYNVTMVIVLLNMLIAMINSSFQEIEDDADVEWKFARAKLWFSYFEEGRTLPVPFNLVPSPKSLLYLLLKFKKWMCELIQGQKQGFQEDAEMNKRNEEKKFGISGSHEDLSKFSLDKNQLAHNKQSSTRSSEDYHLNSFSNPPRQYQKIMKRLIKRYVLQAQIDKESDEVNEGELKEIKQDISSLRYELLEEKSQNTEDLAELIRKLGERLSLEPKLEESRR

Molecules are shown by their SMILES. The list shows a part of the results, in another mix than the full data. Some salts and complexes are drawn in separate pieces, as the source files them; their charges need not balance. Active and inactive are the calls of the source.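 Rule for the calls: active = B-score under library mean minus 3 SD, initial fluorescence not abnormally high, positive integrated signal ratio; inactive = the rest.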

The target of this assay is Short transient receptor potential channel 6 (Mus musculus) (UniProt Q61143). Kind of assay: mouse TRPC6 channel inhibitors, primary screen, cell-based, HEK293, membrane potential dye (AID 2553).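 For B-score: B-score derived from integrated fluorescence ratio over the kinetic read; more negative B-score means stronger inhibition of depolarization.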 As to conditions: ACh-evoked depolarization, at 10 µM; hits give low values.
Take `O=[As](O)(c1cccc(O)c1)c1cccc(O)c1`: the call was inactive.

As for `Cc1cc(C)cc(OP(C)(=O)Nc2ccc(C)cc2C)c1` (centres undefined), the result was inactive.

Consider `Cc1ccc(C)c(NP(C)(=O)Oc2ccccc2)c1` (centres undefined), for which the outcome was inactive.

As to `CCCOP(=S)(Nc1nc(N)cc(=O)[nH]1)OCCC`, the compound was classed as inactive.

Consider `Cc1cc(C)cc(OP(C)(=O)Nc2ccccn2)c1` (centres undefined), for which the result was inactive.

With `CP(=O)(Nc1cccc(Br)c1)Oc1ccccc1` (centres undefined), the compound was classed as inactive.

Consider `Nc1cccc2c([As](=O)(O)O)cccc12`, for which the result was inactive.

For the compound `Cc1ccc(NCCc2c([N+](=O)[O-])cc([N+](=O)[O-])cc2[N+](=O)[O-])cc1`, the compound was called inactive.

`CCOP(=O)(Nc1cccc2ccccc12)OCC`: the call was inactive.

For the compound `CCOP(=O)(Nc1ccc(C)cn1)OCC`, the result was inactive.

Regarding `CN(CCCl)Cc1cc(Cl)c(NC2=NCCN2)c(Cl)c1`, the call was inactive.

`O=P1(Nc2ccccn2)COc2ccccc2OC1`: the compound was classed as inactive.

Regarding `O=[N+]([O-])c1cc([N+](=O)[O-])c(-n2nnc3ccccc32)c([N+](=O)[O-])c1`, the call was inactive.

For `CCOP(=O)(NC(=NC(C)c1ccccc1)NC(C)c1ccccc1)OCC` (centres undefined), the compound was classed as inactive.

For the compound `Clc1n[nH]nc1-c1nn[nH][15n]1`, the call was inactive.

Consider `CC(C)(C)C(=O)NC(Sc1ncccn1)C(Cl)(Cl)Cl` (centres undefined), for which the call was inactive.

Turning to `COc1ccccc1CNC(=O)COC(=O)C(O)(c1ccccc1)c1ccccc1`, the result was inactive.

As to `O=[N+]([O-])c1cc([N+](=O)[O-])c(-c2cnn(-c3ccccc3)c2)c([N+](=O)[O-])c1`, the result was inactive.

On to `O=[As](O)(c1ccccc1Br)c1ccccc1Br`, for which the compound was classed as inactive.

On to `CC1(CBr)Cn2c(nc3ccccc3c2=O)S1` (centres undefined), for which the compound was called inactive.

Regarding `CC(C)/C=N\N=C(\N)N[N+](=O)[O-]`, the result was inactive.

`CN(C(=O)Cc1ccc(Cl)c(Cl)c1)[C@@H]1CCCC[C@H]1N1CCCC1`: the call was inactive.

Regarding `COc1cc(C2NCCC3(OCCO3)C2(C)C)cc(OC)c1OC.O=[N+]([O-])c1cc([N+](=O)[O-])c(O)c([N+](=O)[O-])c1` (centres undefined), the outcome was inactive.

With `Cc1nn(-c2ccccc2)c2c1P(=O)(N1CCOCC1)N(C)C(c1ccccc1)=N2` (centres undefined), the result was inactive.

On to `CC1CCC(C(C)C)C(OP(=O)(Nc2ccccn2)c2ccccc2)C1` (centres undefined), for which the compound was called inactive.

`Cc1ccc(C(=O)OC2CN3CCC2CC3)cc1` (centres undefined): the compound was classed as inactive.

Regarding `O=C(/C=C/c1ccccc1)OC1CN2CCC1CC2` (centres undefined), the compound was called inactive.

For the compound `CN(C)C1(CNC(=O)c2ccc(S(C)(=O)=O)cc2)CCCCC1`, the call was inactive.

For `O=[N+]([O-])c1cc([N+](=O)[O-])c(Nc2nnnn2CCO)c([N+](=O)[O-])c1`, the result was inactive.

As to `CCOC(=O)C(CC)C1=NC(C)(C)Cc2ccccc21.O=[N+]([O-])c1cc([N+](=O)[O-])c(O)c([N+](=O)[O-])c1` (centres undefined), the compound was called inactive.

As for `COc1ccccc1OP(C)(=O)Nc1c(C)cccc1C` (centres undefined), the compound was called inactive.

On to `CN1CCCCC1COC(=O)C1(O)c2ccccc2CCc2ccccc21` (centres undefined), for which the compound was classed as inactive.

Regarding `O=P1(Nc2ncccn2)COc2ccccc2OC1`, the compound was called inactive.

On to `O=[As](O)(c1cccs1)c1cccs1`, for which the compound was called inactive.

For the compound `Cc1ccc(OCC(=O)OC2CN3CCC2CC3)cc1` (centres undefined), the outcome was inactive.

For the compound `O=P1(Nc2ccc(Br)cn2)COc2ccccc2OC1`, the compound was called inactive.

Take `CCCOc1ccc(NP(C)(=O)Oc2ccc(Cl)cc2)cc1` (centres undefined): the compound was classed as inactive.

Consider `Nc1cccc([As](=O)(O)c2ccccc2)c1`, for which the result was inactive.

For the compound `CP(=O)(Nc1ccc(SC(F)(F)F)cc1)Oc1ccccc1` (centres undefined), the outcome was inactive.

As to `COc1ccc(OP(C)(=O)Nc2cccc(Br)c2)cc1` (centres undefined), the result was inactive.

For `O=P(Nc1ccccn1)(c1ccc(Br)cc1)c1ccc(Br)cc1`, the compound was classed as inactive.

On to `CN(C)C1(CNC(=O)c2ccc(Cl)c(S(N)(=O)=O)c2)CCCCC1`, for which the compound was called inactive.

In the case of `CN(C)CCOC(=O)C(O)(c1ccccc1)C1CCCCC1` (centres undefined), the B-score was active: -9.87.

In the case of `O=P(Nc1nc2ccccc2s1)(c1ccccc1)c1ccccc1`, the outcome was inactive.

Consider `C[C@H]1OP(=O)(Oc2ccccc2)[C@H](O)[C@H](O)[C@H]1N=[N+]=[N-]` (some centres undefined), for which the compound was classed as inactive.

As to `COc1ccc(NP(C)(=O)Oc2ccccc2OC)cc1` (centres undefined), the compound was classed as inactive.

For the compound `O=[N+]([O-])c1ncn(CCn2cnc([N+](=O)[O-])n2)n1`, the outcome was inactive.

`O=[N+]([O-])c1ccc(OP2(=O)COCCO2)cc1` (centres undefined): the call was inactive.

Regarding `CC(=O)NC(SC(=S)N(C)C)C(Cl)(Cl)Cl` (centres undefined), the compound was called inactive.

As to `O=[As](O)(c1ccccc1)c1ccc(O)cc1`, the compound was called inactive.

Consider `O=[N+]([O-])c1cc([N+](=O)[O-])c(NCC2CCS(=O)(=O)C2)c([N+](=O)[O-])c1` (centres undefined), for which the call was inactive.

Turning to `Cc1cc(-c2cccc3ccccc23)c(C)cn1.O=[N+]([O-])c1cc([N+](=O)[O-])c(O)c([N+](=O)[O-])c1`, the call was inactive.

For the compound `C(Cc1nn[nH]n1)Cc1nn[nH]n1`, the result was inactive.

`Nc1ccc([As](=O)(O)c2ccc([N+](=O)[O-])cc2)cc1`: the result was inactive.

Take `O=C(OC1CN2CCC1CC2)c1cccc(Cl)c1` (centres undefined): the outcome was inactive.

`CP(=O)(Nc1ccc(SC(F)(F)F)cc1)Oc1ccc(F)cc1` (centres undefined): the call was inactive.

As to `CC(C)C(=O)NC(Sc1ccccc1)C(Cl)(Cl)Cl` (centres undefined), the compound was called inactive.

`O=P(Nc1nccs1)(c1ccccc1)c1ccccc1`: the result was inactive.

Take `CCOP(C)(=S)SCC(=O)NC(C)(CC)C(=O)O` (centres undefined): the result was inactive.

Take `c1nnnn1CCn1cnnn1`: the call was inactive.

Take `CP(=O)(Nc1ccc2c(c1)OCCO2)Oc1ccccc1` (centres undefined): the outcome was inactive.

Turning to `O=P1(Nc2nc3ccc(Cl)cc3s2)COc2ccccc2O1` (centres undefined), the result was inactive.

`CCOc1ccc(C2=NCC(CBr)S2)cc1` (centres undefined): the compound was classed as inactive.

`CP(=O)(Nc1ccccc1F)Oc1ccccc1` (centres undefined): the compound was called inactive.

For `CC(C)(C)C(=O)NC(Sc1ccccc1)C(Cl)(Cl)Cl` (centres undefined), the call was inactive.

In the case of `CC(C)c1ccc(OP(C)(=O)Nc2ccc(SC(F)(F)F)cc2)cc1` (centres undefined), the compound was classed as inactive.

As to `CC(=O)c1ccc(N2CC2c2ccncc2)cc1` (centres undefined), the result was inactive.

For the compound `O=C(OC1CN2CCC1CC2)c1ccc([N+](=O)[O-])cc1` (centres undefined), the result was inactive.

Consider `O=C(OCCN1CCN(CCOCc2ccccc2)CC1)C(O)(c1ccccc1)c1ccccc1`, for which the compound was classed as inactive.

Regarding `C[C@H]1OP(=O)(Oc2ccccc2)C[C@@H]2O[C@@H]21` (some centres undefined), the result was inactive.

On to `C[C@@H]1C=CCP(=O)(Oc2ccccc2)O1` (some centres undefined), for which the call was inactive.

Turning to `CC(=O)Nc1ccc([As](=O)(O)O)c(O)c1`, the compound was classed as inactive.

As to `COc1ccc2c(c1O)-c1c(O)c(OC)cc3c1[C@H](C2)[N+](C)(C)CC3.O=[N+]([O-])c1cc([N+](=O)[O-])c([O-])c([N+](=O)[O-])c1[O-]`, the call was inactive.

Take `CC(=O)Nc1ccc(Oc2c([N+](=O)[O-])cc([N+](=O)[O-])cc2[N+](=O)[O-])cc1`: the outcome was inactive.

In the case of `CCNC(=S)/N=C(\N)N[N+](=O)[O-]`, the compound was classed as inactive.

As to `O=C(NC1CCS(=O)(=O)C1)NP(=S)(Oc1ccccc1)Oc1ccccc1` (centres undefined), the compound was classed as inactive.

Take `c1ccc(-c2nn[nH]n2)c(-c2nn[nH]n2)c1`: the outcome was inactive.

As for `CCOC(=O)NC(Sc1ccccc1)C(Cl)(Cl)Cl` (centres undefined), the result was inactive.

Take `Cc1ccc(NP(=O)(Oc2cccc(C)c2)Oc2cccc(C)c2)nc1`: the compound was classed as inactive.

On to `CCOC(=O)c1ccc(NP(C)(=O)Oc2ccc(F)cc2)cc1` (centres undefined), for which the result was inactive.

Take `COc1ccc(OP(C)(=O)Nc2ccc(SC(F)(F)F)cc2)cc1` (centres undefined): the call was inactive.

For the compound `COC(=O)c1cc2c(s1)N=C(c1ccccc1)N(C)P2(=O)N1CCOCC1` (centres undefined), the call was inactive.

`Cc1ccc(OP(=O)(Nc2ccccn2)Oc2ccc(C)cc2)cc1`: the call was inactive.

Regarding `CC(=O)NC(SC(=S)N(CC(C)C)CC(C)C)C(Cl)(Cl)Cl` (centres undefined), the outcome was inactive.

For the compound `O=C(OC1CN2CCC1CC2)c1ccccc1` (centres undefined), the call was inactive.

For the compound `CCN(CC)CCCOC(=O)C(O)(c1ccccc1)C1CCCCC1` (centres undefined), the B-score was active: -8.5.

For the compound `CCC(=O)N1C2C3N(C(=O)CC)C1C1N(C(=O)CC)C(C(N1C(=O)CC)N3C(=O)CC)N2C(=O)CC`, the compound was called inactive.

With `CP(=O)(Nc1ccccc1)Oc1ccc(F)cc1` (centres undefined), the compound was called inactive.

Take `Cc1ccccc1OP(=O)(Nc1ccccn1)Oc1ccccc1C`: the result was inactive.

As to `O=[N+]([O-])c1cc([N+](=O)[O-])c(OC2CCCCC2O)c([N+](=O)[O-])c1` (centres undefined), the compound was classed as inactive.

In the case of `CCCCCOc1ccc(NP(C)(=O)Oc2ccc(Cl)cc2Cl)cc1` (centres undefined), the result was inactive.

As for `CN(C)C(=O)Oc1noc2ccccc12`, the compound was classed as inactive.

In the case of `CC(=O)Nc1ccc([As](=O)(O)O)cc1`, the outcome was inactive.

Turning to `O=C(O)c1ccccc1[As](=O)(O)O`, the result was inactive.

Turning to `O=P(Nc1nc2ccc(Cl)cc2s1)(c1ccccc1)c1ccccc1`, the result was inactive.

Consider `Cc1cc(C)cc(OP(C)(=O)Nc2cccc(C(F)(F)F)c2)c1` (centres undefined), for which the outcome was inactive.

With `Cc1cc(SC(NC(=O)c2ccc(F)cc2)C(Cl)(Cl)Cl)ncn1` (centres undefined), the compound was classed as inactive.

In the case of `CCOP(=O)(Nc1ccccc1)OCC`, the compound was called inactive.

With `COc1ccccc1OP(C)(=O)Nc1ccc(C)c(C)c1` (centres undefined), the compound was called inactive.

In the case of `Cc1ccc(NP(=O)(Oc2ccccc2F)Oc2ccccc2F)nc1`, the outcome was inactive.

As to `CN(C(=O)Cc1ccc(Cl)c(Cl)c1)[C@H]1CCCC[C@@H]1N1CCCC1`, the compound was classed as inactive.

Regarding `COc1ccc(OP(C)(=O)Nc2ccccc2Br)cc1` (centres undefined), the compound was classed as inactive.

On to `Cc1nc2ccc3ccccc3c2o1.O=[N+]([O-])c1cc([N+](=O)[O-])c(O)c([N+](=O)[O-])c1`, for which the compound was classed as inactive.

As for `O=[N+]([O-])c1cc([N+](=O)[O-])c(CCN2CCOCC2)c([N+](=O)[O-])c1`, the result was inactive.

In the case of `CCN(N=Nc1nonc1N)c1nonc1N`, the compound was classed as inactive.

As to `Nc1cccc2ccc([As](=O)(O)O)cc12`, the outcome was inactive.

For `CP(=O)(Nc1ccc(Cl)cc1Cl)Oc1ccccc1` (centres undefined), the compound was classed as inactive.

`CP(=O)(OCCOc1ccccc1)OCCOc1ccccc1`: the outcome was inactive.

`NC(=O)c1cc([N+](=O)[O-])cc([N+](=O)[O-])c1N`: the result was inactive.

For `COc1ccccc1OP(C)(=O)Nc1ccc(Br)cc1` (centres undefined), the call was inactive.

For the compound `Cc1ccc(N/C(=N/P(=O)(N2CCOCC2)N2CCOCC2)N2CCOCC2)cc1`, the compound was classed as inactive.

Regarding `COc1ccccc1OP(=O)(Nc1ccc(C)cn1)Oc1ccccc1OC`, the compound was called inactive.

Consider `COc1ccc(OP(C)(=O)Nc2ccccn2)cc1` (centres undefined), for which the outcome was inactive.

Take `Cc1ccc(OP(=O)(Nc2nccs2)Oc2ccc(C)cc2)cc1`: the compound was called inactive.
